The chains behind the UniProt entries cited, without tags or fusion partners.
UniProt P23975, whole entry: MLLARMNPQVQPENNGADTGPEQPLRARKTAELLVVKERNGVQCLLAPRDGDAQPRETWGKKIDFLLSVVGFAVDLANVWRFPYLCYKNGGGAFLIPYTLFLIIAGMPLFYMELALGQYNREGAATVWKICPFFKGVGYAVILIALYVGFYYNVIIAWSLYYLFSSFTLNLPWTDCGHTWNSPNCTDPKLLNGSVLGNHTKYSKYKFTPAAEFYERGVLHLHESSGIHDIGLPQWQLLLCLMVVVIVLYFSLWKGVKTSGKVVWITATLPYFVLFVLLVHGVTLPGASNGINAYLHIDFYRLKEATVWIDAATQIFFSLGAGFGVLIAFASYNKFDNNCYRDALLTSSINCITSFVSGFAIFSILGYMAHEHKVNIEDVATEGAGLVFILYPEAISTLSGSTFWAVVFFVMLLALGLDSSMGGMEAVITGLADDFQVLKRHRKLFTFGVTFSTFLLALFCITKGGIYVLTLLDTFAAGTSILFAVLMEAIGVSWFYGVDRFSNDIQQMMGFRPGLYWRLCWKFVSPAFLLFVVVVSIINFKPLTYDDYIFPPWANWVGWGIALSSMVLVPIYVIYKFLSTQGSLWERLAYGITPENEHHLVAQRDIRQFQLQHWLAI

According to US9550000B2, “Compositions, methods, and systems for the synthesis and use of imaging agents” (Lantheus Medical Imaging, Inc., priority 2011, dated 2017):

Tests used:
[1] = molecular target: human norepinephrine transporter (Homo sapiens, UniProt P23975); assay: Norepinephrine transporter binding assay ([3H]desipramine competition, MDCK cell membranes); details: read-out: NET Affinity; competition with [3H]desipramine 2 nM, 2 h on ice
Procedure: Individual inhibitors were dissolved in incubation buffer (50 mM Tris-HCl, 10% sucrose, pH 7.4) at appropriate dilutions. The inhibitor solutions were added to the wells of a microtiter plate (40 μL/well) in triplicate. Each well of test agent (and appropriate control wells) was treated with a mixture of MDCK cell membrane preparation (22.4 μg of membrane) expressing human norepinephrine transporter (Bmax=3.7 pmol norepinephrine transporter/mg protein), and [^3H]desipramine (2 nM, 64.8 Ci/mmol) in a total volume of 0.2 mL. The resulting mixtures were incubated for 2 h on ice.
A 96 well GF/C filter plate was presoaked with coating buffer (0.5% polyvinylpyrrolidine and 0.1% Tween 20) for 2 h at room temperature, then washed with incubation buffer (6×0.2 mL). The competition reactions were transferred to the coated plate and filtered. The filter plate was washed (6×0.2 mL) with ice cold wash buffer (50 mM Tris-HCl, 0.9% NaCl, pH 7.4) then dried overnight and treated with 25 μL scintillation fluid for analysis on a plate reader (Microbeta TriLux 1450 LSC and Luminescence counter, Perkin Elmer, Shelton Conn.).

PC-12 cells = assay: PC-12 binding assay (cell uptake with or without desipramine); details: 0.1 μCi test agent, 60 min at 37° C.; for PC-12 (% bound) Block: with 1 μM desipramine (nonspecific uptake); for PC-12 (% bound) Control: without desipramine (total uptake)
Procedure: Rat pheochromocytoma cell line (PC-12) were purchased from the American Type Culture Collection (ATCC) then cultured in collagen-coated flasks (BD Bio Coat Collagen Type 1, BD Biosciences) using a growth media composed of F-12 K media, 2 mM L-glutamine, 15% horse serum, 2.5% fetal bovine serum (FBS) and 1% penicillin-streptomycin.
Prepared PC-12 cells were seeded into 6-well plates at a density of 1×10^6 cells/well with 2 mL of growth media and maintained 24 h at 37° C. under a 5% CO2 atmosphere. The media was exchanged and each well treated with 0.1 μCi test agent, with or without 1 μM desipramine. The resulting mixture was incubated for 60 min at 37° C. and 5% CO2 then centrifuged at 500×g for 3 min and washed with PBS buffer. Radioactivity associated with the cells was then measured, and total uptake determined in the wells without desipramine; nonspecific uptake was measured in the associated wells containing desipramine. The specific NET mediated cell uptake is calculated as percent total uptake minus percent nonspecific uptake.

[2] = Tissue distribution in rabbits; details: bolus iv injection
Procedure: (§1) Male Sprague Dawley rats (300-500 g, Taconic), and male New Zealand rabbits (3-4 kg, Covance) were used in accordance with our Institutional Animal Care and Use Committee. Rats were anesthetized with sodium pentobarbital (50 mg/kg, i.p.) and the left femoral vein cannulated with PESO tubing for drug injection. Rabbits were pre-sedated with acepromazine (0.75 mg/kg i.m.) then anesthetized with ketamine (40 mg/kg, i.m.) and xylazine (8 mg/kg, i.m); the marginal ear vein was cannulated for drug injection. Additional doses of anesthetics were given as needed.
(§2) After preparation, each animal received a bolus injection of the test agent via the venous catheter. Rats and rabbits were euthanized after the injection and samples of the blood, heart, lung, liver, spleen, kidney, femur and muscle were collected. All samples were weighed and counted for radioactivity (Wallac Wizard 1480, PerkinElmer Life and Analytical Sciences, Shelton, Conn.); net radioactivity administered in each animal was determined by subtracting the residual activity in both the syringe and venous catheter. Tissue uptake of each agent was determined as a percentage of the injected dose per gram tissue (% ID/g).

[3] = Tissue distribution in rats; details: bolus iv injection
Procedure: as §1, §2

SMILES | Ki [1] | PC-12 (% bound) Block (PC-12 cells) | PC-12 (% bound) Control (PC-12 cells) | also measured
NCCc1c[nH]c2ccc(OCCF)cc12 | 19 µM | 0.00 % bound | 0.00 % bound | –
OCCc1cn(Cc2cccc(Cl)c2)nn1 | > 73.5 µM | – | – | –
N=C(N)NCCc1cn(CCF)c2ccc(O)cc12 | 2.06 µM | 0.10 % bound | 0.10 % bound | –
FCCOc1ccc(CCNc2ncccn2)cc1Cl | 115 µM | – | – | –
N=C(N)Nc1ccc(OCCF)c(Cl)c1 | 59.2 µM | – | – | –
N=C(N)NCCNc1ccc(OCCF)cc1 | 10.3 µM | 2.20 % bound | 12.20 % bound | –
C[N+]1(CCF)CCN(c2ccc(F)cc2)CC1 | 70.7 µM | – | – | –
N=C(CF)NCc1cccc(Cl)c1 | 6.42 µM | 0.50 % bound | 1.40 % bound | –
N=C(N)N/C=C/c1ccc(OCCF)cc1 | 4.1 µM | – | – | –
N=C(N)NOCc1ccc(OCCF)c(Br)c1 | 7.89 µM | 0.10 % bound | 0.10 % bound | –
N=C(CF)NCc1cccc(C(F)(F)F)c1 | > 73.5 µM | – | – | –
C[N+]1(C)CCN(c2ccc(OCCF)cc2)CC1 | > 73.5 µM | – | – | –
N=C(CF)NCc1cccc(Br)c1 | 4.86 µM | 0.90 % bound | 2.10 % bound | –
N=C(N)NCc1ccc(CCCF)c(Br)c1 | 10 µM | 0.70 % bound | 1.40 % bound | Rabbit Blood ([2]; blood): 0.013 % ID/g; Rabbit Heart ([2]; heart): 0.066 % ID/g; Rabbit Liver ([2]; liver): 0.021 % ID/g; Rabbit Lung ([2]; lung): 0.078 % ID/g; Rat Blood ([3]; blood): 0.11 ± 0.02 % ID/g; Rat Heart ([3]; heart): 1.60 ± 0.13 % ID/g; Rat Liver ([3]; liver): 0.30 ± 0.12 % ID/g; Rat Lung ([3]; lung): 0.80 ± 0.09 % ID/g
N#Cc1cc(CNC(=N)N)ccc1OCCF | > 73.5 µM | – | – | –
FCCOc1ccc(CCNc2nccs2)cc1Cl | 13 µM | – | – | –
C=Cc1cn(Cc2cccc(Cl)c2)nn1 | 32.1 µM | – | – | –
N=C(N)NCc1ccc(NC(=O)CF)c(O)c1 | > 73.5 µM | – | – | –
FCCOc1ccc(CCNc2nc3ccccc3[nH]2)cc1Cl | 2.01 µM | – | – | –
CN1CCN(C(=N)NCc2ccc(OCCF)c(Br)c2)CC1 | > 73.5 µM | – | – | –
CCc1ccc(CNC(=N)N)cc1 | 7.91 µM | 0.70 % bound | 2.40 % bound | –
N=C(N)N/N=C/c1ccc(OCCF)c(Br)c1 | 1.55 µM | – | – | –
N=C1N(CCF)CCN1Cc1cccc(Br)c1 | 3.07 µM | 3.30 % bound | 3.90 % bound | –
